# According to patent publication US20020010201A1, “Method for treating restless leg syndrome using pramipexole and clonidine” (priority 1999, published 2002):
# System: patients with RLS
# Assay: Treatment of 2 patients with RLS (therapeutic history, monotherapies and combination therapy of pramipexole and clonidine)
# Conditions: previous therapy of the 2 RLS patients
# Description: 2 patients with RLS (person and person) were treated with a combination therapy of pramipexole and clonidine.
# 1. […] The clonidine was also initially prescribed in a single dose of 0.075 mg two hours before bedtime and increased by 0.075 mg at intervals of 3 days.
# 2. Treatment with a Combination Therapy of Clonidine and Pramipexole After slowly bringing the clonidine therapy to a complete halt and after a treatment-free period of about 1 week, both patients were treated with a combination of 0.088 mg of pramipexole and 0.075 mg of clonidine. […] After 7 days the dosage of pramipexole had been increased to 0.18 mg and the dosage of clonidine to 0.15 mg, two hours before going to sleep.
substance,measurement,value
bromocryptine,side effects preventing further dose increase,"side effects such as nausea, gastrointestinal problems and dizziness"
